Molecular target: T1, GCase (Homo sapiens, UniProt P04062)
T1 construct: endogenous in cells; host or cells: HeLa cells
T1 sequence (P04062 40-536): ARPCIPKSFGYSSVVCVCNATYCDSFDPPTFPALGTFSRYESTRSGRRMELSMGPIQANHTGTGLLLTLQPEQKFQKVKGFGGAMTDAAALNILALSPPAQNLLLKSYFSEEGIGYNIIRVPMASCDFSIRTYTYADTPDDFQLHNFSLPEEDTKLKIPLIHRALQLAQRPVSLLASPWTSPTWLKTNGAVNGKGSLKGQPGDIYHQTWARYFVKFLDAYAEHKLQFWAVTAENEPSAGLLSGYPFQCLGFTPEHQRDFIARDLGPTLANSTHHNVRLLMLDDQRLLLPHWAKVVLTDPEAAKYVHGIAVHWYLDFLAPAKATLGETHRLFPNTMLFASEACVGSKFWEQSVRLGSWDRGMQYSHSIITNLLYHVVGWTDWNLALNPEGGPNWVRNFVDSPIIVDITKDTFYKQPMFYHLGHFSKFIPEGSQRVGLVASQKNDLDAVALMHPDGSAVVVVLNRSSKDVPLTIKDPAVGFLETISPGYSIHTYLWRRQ
Test: activation of GCase in a live cell PFB assay in HELA cells
Format: cell-based

## O=C(c1ccc2cc[nH]c2c1)N1C2CCC1CC(COc1ccccc1)C2 (stereo not shown) [Compound 340, (1H-indol-6-yl)(3-(phenoxymethyl)-8-azabicyclo[3.2.1]octan-8-yl)methanone]
  EC50: 10 to 50 µM

From US20240262832A1, “SMALL MOLECULE MODULATORS OF GLUCOCEREBROSIDASE ACTIVITY AND USES THEREOF” (Vanqua Bio, Inc., priority 2021, published 2024)
